From ChEMBL document CHEMBL1795327, “Novel 4-phenylpiperidine-2,6-dione derivatives. Ligands for α₁-adrenoceptor subtypes” (Eur J Med Chem, 2011)

Target: T1, Alpha-1A adrenergic receptor (Homo sapiens, UniProt P35348)
T1 sequence (P35348 whole entry): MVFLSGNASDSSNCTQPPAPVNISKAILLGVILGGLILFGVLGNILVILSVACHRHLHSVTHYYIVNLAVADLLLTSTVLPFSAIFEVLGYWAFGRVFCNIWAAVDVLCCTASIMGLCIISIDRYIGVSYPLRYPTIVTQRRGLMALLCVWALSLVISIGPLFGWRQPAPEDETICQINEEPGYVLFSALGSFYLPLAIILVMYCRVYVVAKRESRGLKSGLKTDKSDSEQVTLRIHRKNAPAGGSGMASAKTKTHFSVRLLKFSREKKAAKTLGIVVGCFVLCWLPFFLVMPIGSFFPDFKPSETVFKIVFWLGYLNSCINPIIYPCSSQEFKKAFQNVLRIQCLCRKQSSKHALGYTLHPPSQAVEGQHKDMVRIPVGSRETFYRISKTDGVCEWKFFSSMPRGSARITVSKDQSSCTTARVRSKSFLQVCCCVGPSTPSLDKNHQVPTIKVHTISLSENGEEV
Assay: Binding affinity to adrenergic alpha1A receptor

Ki: 42.7 nM
SMILES: COc1ccccc1N1CCN(CCN2C(=O)CC3(CCCC3)CC2=O)CC1
